## Antibody variant affinities, Ab-14 heavy chain, assay 1

From the AlphaSeq antibody data of Engelhart et al. 2022 (doi:10.1038/s41597-022-01779-4), copy in the FLAb collection.

Binding partner: SARS-CoV-2 spike HR2 peptide, sequence PDVDLGDISGINAS.

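Phage display of a naive human antibody library on the peptide gave the parent. Library AAYL49 holds single substitutions and randomly drawn double and triple substitutions in the CDRs. In AlphaSeq, yeast of one mating type display the scFv and yeast of the other type display the target. The frequency of each diploid, read from paired DNA barcodes, reflects how well the two displayed proteins bind. Scores were corrected for input abundance and mapped to Kd with protein pairs of known affinity run in the same pool. Mating was done three times.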

Parent: Ab-14, a human scFv built as VH, a (GGGGS)3 linker, VL. Only the CDRs of the heavy chain vary.
VH: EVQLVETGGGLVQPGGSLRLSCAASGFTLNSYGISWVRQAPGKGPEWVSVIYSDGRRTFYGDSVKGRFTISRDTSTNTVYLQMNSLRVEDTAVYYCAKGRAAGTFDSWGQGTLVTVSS
VL: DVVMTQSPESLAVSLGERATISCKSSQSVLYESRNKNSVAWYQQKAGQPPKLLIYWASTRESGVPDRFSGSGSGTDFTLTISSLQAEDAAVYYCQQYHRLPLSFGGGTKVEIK

Variants are written as CDR1, CDR2 and CDR3 of the heavy chain (limits as in the source). Parent: GFTLNSYGIS, VIYSDGRRTFYGDSVK, GRAAGTFDS. Values are log10 of the apparent Kd in nM; lower means stronger binding. A mean of the replicates is given; it leaves out those without a signal. "not detected" marks a missing value. The strain was present, yet no cells mated with the target were sequenced in any replicate, which points to weak or no binding.

CDR-H1,CDR-H2,CDR-H3,mean log10 Kd (nM),detected,signal with controls
GFTLNSYGIS,VIYWDGRRTGYGDSVK,GRAAGTFDS,2.65,3 of 3,0 of 9
GFTLNSYGIS,VIYSDGRRTFDGSSVL,GRAAGTFDS,not detected,0 of 3,0 of 9
GFTLNSYGIS,VIYSDGRRCFQGDSVK,GKAAGTFDS,not detected,0 of 3,1 of 9
KFTLNSYGIS,GIYSDGFRTFYGDSVK,GRAAGTFDS,3.94,2 of 3,5 of 9
GFTFNSYGIS,VIYSAGRRTFYGDSVK,GRAAGTFDS,3.77,1 of 3,4 of 9
EFTLNSYGIS,VIYSDGRRTFYGDSVK,KRAANTFDS,5.63,2 of 3,1 of 9
GHTLPSYGIS,VIYSDGRRFFYGDSVK,GRAAGTFDS,4.21,1 of 3,5 of 9
GFTLASYGIS,VIYSLGRRTFYGDSVR,GRAAGTFDS,not detected,0 of 3,0 of 9
GFPLNWYGFS,VIYSDGRRTFYGDSVK,GRAAGTFDS,not detected,0 of 3,2 of 9
GFTLNSYGIS,VIYSDGRRTFYGDSVI,GRAHGTFFS,3.19,1 of 3,1 of 9
GFTLNSYGIS,VIYSDQRRTFYGDSVG,GRAADTFDS,not detected,0 of 3,0 of 9
GPTLNSYGIS,VIYSDGCRTFYTDSVK,GRAAGTFDS,1.90,3 of 3,4 of 9
GFTLRSYGIS,VIYSDGRRTFYGYSVP,GRAAGTFDS,not detected,0 of 3,1 of 9
GSTLNSYKIS,VIYSDGRRTDYGDSVK,GRAAGTFDS,4.15,3 of 3,6 of 9
GFHLNSYRIS,VIYSDGRRTFYGDSVK,GRAAGTFDS,not detected,0 of 3,0 of 9
GRTLNSHGIS,VIYSDGRRTFYGLSVK,GRAAGTFDS,3.65,2 of 3,2 of 9
GFTLNSYGIS,VIYSDGRRTFYGDSKK,GRCAGTKDS,not detected,0 of 3,1 of 9
GFTLSDYGIS,VIYSDGRRTVYGDSVK,GRAAGTFDS,3.49,1 of 3,1 of 9
GKTLNSYGIA,VIYSDGRLTFYGDSVK,GRAAGTFDS,4.58,2 of 3,4 of 9
GTTLNSYGIS,VIYSDGRRTFYGDSDQ,GRAAGTFDS,not detected,0 of 3,3 of 9
GFTLNSYGCS,VIYSDGRRTFYGSSVK,GRAAGGFDS,3.83,1 of 3,0 of 9
GFTLNSYGIS,VIYADGRLTFYGDSVK,GRAAGTFDS,2.13,3 of 3,3 of 9
GFTWNSYGIS,VIYSDGRRTFYGDSVK,ERAAGTFDW,4.53,1 of 3,1 of 9
GFTLNSYCIS,VIYSDGSRTFTGDSVK,GRAAGTFDS,5.02,1 of 3,3 of 9
GFTLNSYGIS,VIYKCGRRTFYGDSVK,GRIAGTFDS,4.36,3 of 3,4 of 9
GYCLNSYGIS,VIYSDGRRTFYGDSVK,GRVAGTFDS,2.44,3 of 3,1 of 9
GFTLNSYGIS,VIYSDERRTAYGDSVK,GRAAGTFDS,4.43,1 of 3,1 of 9
GFTLNSYPIS,VIYSDGRRTFYGDSVK,GRAAQTFWS,3.26,2 of 3,0 of 9
GCGLNSLGIS,VIYSDGRRTFYGDSVK,GRAAGTFDS,3.71,2 of 3,3 of 9
GTTLNSYGIS,DIYSDGRRTMYGDSVK,GRAAGTFDS,4.23,2 of 3,2 of 9
KFTLNSYGSS,VIYSDGRRTFYGDSVK,GKAAGTFDS,0.45,3 of 3,0 of 9
GFTLNSYPKS,VIYSDGRRTFYGASVK,GRAAGTFDS,4.42,1 of 3,6 of 9
GFTLNSYFIS,VIYSDGRRTFYHDSVK,GRAAGTFDS,not detected,0 of 3,0 of 9
GFTLNSYGIS,VIYSDGRRTKRGDSVQ,GRAAGTFDS,4.83,1 of 3,2 of 9
GFVLNSYGIS,VIYSDGRRTFGGDDVK,GRAAGTFDS,4.04,1 of 3,1 of 9
DFTLNSYGIS,VIYSDGRRTFYGDSVL,GRAAGTFDS,2.46,3 of 3,0 of 9
GFTLNSKGDC,VIYSDGRRTFYGDSVK,GRAAGTFDS,4.34,2 of 3,1 of 9
GFTLNSYGIS,VIYSDGRRTFYNDSVK,GRAAGTFDV,3.24,1 of 3,0 of 9
GFTLNSYGIS,VIYSDGRRRFYGSSVK,WRAAGTFDS,4.18,2 of 3,2 of 9
GFFLNSYGIS,VIYSDGRRTFYGWSVW,GRAAGTFDS,not detected,0 of 3,0 of 9
GFTLNSYGIS,VIYSDKRRTFYGDSVK,GGASGTFDS,not detected,0 of 3,0 of 9
GFTLNSYGIS,VIYSSGRRTFYGDSVK,GRPAGTFWS,4.04,2 of 3,3 of 9
GFTLNSYGPS,VIYLDGRRTFYGDSVK,GRAAGTFDS,not detected,0 of 3,0 of 9
GFTLNSYGIS,VIISDGRRTFYGDSVM,GRAAGTFDD,not detected,0 of 3,0 of 9
GFTLNSYGIS,VITSDGRRTFYGGSVK,GRAAGTFHS,3.44,1 of 3,5 of 9
GFTENSYGIS,VVYSDGRRTFYGDSWK,GRAAGTFDS,3.82,2 of 3,4 of 9
GFTINSYGIS,VIYSDGRRTFYFDSVK,GRAAGTFHS,4.16,2 of 3,3 of 9
GFTLGSYGIS,VIYSDGRRTFRGDSVK,GRAWGTFDS,not detected,0 of 3,0 of 9
GFTTNSYGIS,VIYSDGRRTFYGDSVK,ARAAGLFDS,2.90,3 of 3,0 of 9
GFTLNSYGIS,AIYSDGRRTFYGDSVF,GRAAKTFDS,3.88,3 of 3,4 of 9
GFTLNSSGIS,VIYSDGRRTAYGDSVK,WRAAGTFDS,3.35,2 of 3,1 of 9
GFTLNSYGIS,KIYSSGRRTFYGDSVK,GRAAGTFDS,not detected,0 of 3,1 of 9
GFTLNSYHIS,VIYSDGRRTFYEGSVK,GRAAGTFDS,not detected,0 of 3,0 of 9
GFTLNSYGIS,VIYSDGRRTFYGDSVK,QRSAGTDDS,not detected,0 of 3,2 of 9
GFTLNSYGIS,VIYRDGLRTFYGDSVK,CRAAGTFDS,4.37,1 of 3,0 of 9
GFTLNSYGIS,VVYSDGRRTFYGDSVK,GRAAELFDS,not detected,0 of 3,0 of 9
GFTLNSYGGS,VIYSDGRRTFYGDSVK,GRAWGTFYS,not detected,0 of 3,1 of 9
GFTLNSYGIG,VIYSDGRRTFYGDWVK,GRAAGTFDA,5.74,1 of 3,3 of 9
GFTLNSYGIS,FIYSDGRRTFVGDSVK,GRAAGTDDS,not detected,0 of 3,0 of 9
GFTLNSYGIS,VIYSDGRRTFGGDSVN,GRAAGTFDQ,4.02,1 of 3,1 of 9
GFTLNSKGIS,VIYSDGRRTFYGDSVK,ERAAGTFPS,not detected,0 of 3,0 of 9
GFSLNSYGIS,VIYSDGARTFYGDSVH,GRAAGTFDS,3.07,2 of 3,0 of 9
GFTLNSYPIS,VIDSDGRRTFYGDSVK,GRAAGAFDS,not detected,0 of 3,5 of 9
GFTLNSYGIS,VIYSDGRRCFYGDSVK,GRAAGTFDF,not detected,0 of 3,0 of 9
GFTLNSYGHS,VICSDKRRTFYGDSVK,GRAAGTFDS,5.55,1 of 3,2 of 9
GFTLNSYGIS,VIYSDGRRTFYGDSDQ,GRAAGAFDS,not detected,0 of 3,1 of 9
GFTLNSYGIS,VIYSDGRRTFNGDSVK,GKAAGTEDS,2.82,3 of 3,3 of 9
GFTLNSYGIS,VKYSDGRRTFYGDSVK,GRAAGLNDS,not detected,0 of 3,0 of 9
GFTLNVYGIS,QIYADGRRTFYGDSVK,GRAAGTFDS,4.26,2 of 3,2 of 9
GFTLNSYGIH,VIYSDGRRTFYGDSVK,GRAAGLFDP,1.02,3 of 3,1 of 9
GDTLNSYGIS,VIYCDGRRTFYGDSVK,GRAAVTFDS,4.99,2 of 3,4 of 9
GFTENSYGIS,VIYSDGRMTFYGDSVS,GRAAGTFDS,3.09,2 of 3,0 of 9
GFTLCSYGIS,VIYSDGRRTFYGDSAK,GRAAETFDS,3.86,3 of 3,1 of 9

Nonspecific signal, from three strains lacking the peptide, appeared in 15% of pairings of library AAYL49, centred on 4.06 (5% of these signals below 2.83); values are not corrected for it. For each scFv, signals with the empty controls are counted beside the result. In this assay the parent's reference entry averaged 0.65; its copy inside this library read 4.11 (one replicate of three).